The record followed here is BindingDB's records for US12268687 (Janssen Pharmaceutica, 2025).

Protein sequences, listed by entry. Tags and fused reporters are not part of them. Lines headed by an entry give the natural chain unless they say otherwise; changes in a name come on top.
UniProt Q86SK9: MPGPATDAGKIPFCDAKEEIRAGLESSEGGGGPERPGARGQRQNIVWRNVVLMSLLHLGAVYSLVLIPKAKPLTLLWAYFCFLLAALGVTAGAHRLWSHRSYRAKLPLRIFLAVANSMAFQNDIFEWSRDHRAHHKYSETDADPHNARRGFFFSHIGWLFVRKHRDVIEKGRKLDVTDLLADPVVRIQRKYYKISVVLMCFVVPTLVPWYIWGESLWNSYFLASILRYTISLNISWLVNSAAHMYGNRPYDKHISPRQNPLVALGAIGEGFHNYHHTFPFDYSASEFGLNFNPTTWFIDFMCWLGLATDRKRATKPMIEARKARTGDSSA

In this assay the target is Stearoyl-CoA desaturase 5 (Homo sapiens, UniProt Q86SK9). Kind of assay: Inhibition of SDC1 and SCD5.

The term IC50 denotes the midpoint of a concentration-inhibition curve. A lower IC50 goes with greater potency.

On to `Cn1cc(OC(=O)N2CCC(Oc3cc(F)cc(F)c3)CC2)ccc1=O`, for which the IC50 amounted to 2760 nM.
